Reference: PubChem BioAssay (NCI)
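All cell lines were grown in 96-well plates and treated with compound for 48 hours. GI50 marks 50% less growth. TGI: concentration producing complete growth inhibition.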

Columns and labels:
Test in all cases: inhibition of tumour cell growth, NCI panel, 48 h
786-0 renal = tested on: 786-0 renal
A498 renal = tested on: A498 renal
A549 NSCLC = tested on: A549 NSCLC
ACHN renal = tested on: ACHN renal
BT-549 breast = tested on: BT-549 breast
CAKI-1 renal = tested on: CAKI-1 renal
CCRF-CEM leukemia = tested on: CCRF-CEM leukemia
COLO 205 colon = tested on: COLO 205 colon
DU-145 prostate = tested on: DU-145 prostate
EKVX NSCLC = tested on: EKVX NSCLC
HCC-2998 colon = tested on: HCC-2998 colon
HCT-116 colon = tested on: HCT-116 colon
HCT-15 colon = tested on: HCT-15 colon
HL-60(TB) leukemia = tested on: HL-60(TB) leukemia
HOP-62 NSCLC = tested on: HOP-62 NSCLC
HOP-92 NSCLC = tested on: HOP-92 NSCLC
HS 578T breast = tested on: HS 578T breast
HT29 colon = tested on: HT29 colon
IGROV1 ovarian = tested on: IGROV1 ovarian
K-562 leukemia = tested on: K-562 leukemia
KM12 colon = tested on: KM12 colon
LOX IMVI melanoma = tested on: LOX IMVI melanoma
M14 melanoma = tested on: M14 melanoma
MALME-3M melanoma = tested on: MALME-3M melanoma
MCF7 breast = tested on: MCF7 breast
MDA-MB-231 breast = tested on: MDA-MB-231 breast
MDA-MB-435 = tested on: MDA-MB-435
NCI-H226 lung = tested on: NCI-H226 lung
NCI-H23 lung = tested on: NCI-H23 lung
NCI-H322M lung = tested on: NCI-H322M lung
NCI-H460 lung = tested on: NCI-H460 lung
NCI-H522 lung = tested on: NCI-H522 lung
NCI/ADR-RES ovarian = tested on: NCI/ADR-RES ovarian
OVCAR-3 ovarian = tested on: OVCAR-3 ovarian
OVCAR-5 ovarian = tested on: OVCAR-5 ovarian
OVCAR-8 ovarian = tested on: OVCAR-8 ovarian
PC-3 prostate = tested on: PC-3 prostate
RPMI-8226 leukemia = tested on: RPMI-8226 leukemia
RXF 393 renal = tested on: RXF 393 renal
SF-268 CNS = tested on: SF-268 CNS
SF-539 CNS = tested on: SF-539 CNS
SK-MEL-2 melanoma = tested on: SK-MEL-2 melanoma
SK-MEL-28 melanoma = tested on: SK-MEL-28 melanoma
SK-MEL-5 melanoma = tested on: SK-MEL-5 melanoma
SK-OV-3 ovarian = tested on: SK-OV-3 ovarian
SN12C renal = tested on: SN12C renal
SNB-19 CNS = tested on: SNB-19 CNS
SR leukemia = tested on: SR leukemia
SW-620 colon = tested on: SW-620 colon
T-47D breast = tested on: T-47D breast
TK-10 renal = tested on: TK-10 renal
U251 CNS = tested on: U251 CNS
UACC-257 melanoma = tested on: UACC-257 melanoma
UACC-62 melanoma = tested on: UACC-62 melanoma
UO-31 renal = tested on: UO-31 renal

Compound: O=C(Nc1cccc2ccccc12)N(CCBr)CCBr
- GI50 (786-0 renal): 26.6 µM
- TGI (786-0 renal): 77.7 µM
- GI50 (A498 renal): 18.8 µM
- TGI (A498 renal): 48.8 µM
- GI50 (A549 NSCLC): 40.1 µM
- TGI (A549 NSCLC): > 100 µM
- GI50 (ACHN renal): 2.86 µM
- TGI (ACHN renal): 19.2 µM
- GI50 (BT-549 breast): 19.4 µM
- TGI (BT-549 breast): 41.2 µM
- GI50 (CAKI-1 renal): 25.7 µM
- TGI (CAKI-1 renal): 61.9 µM
- GI50 (CCRF-CEM leukemia): 30.9 µM
- TGI (CCRF-CEM leukemia): > 100 µM
- GI50 (COLO 205 colon): 17.8 µM
- TGI (COLO 205 colon): 43.5 µM
- GI50 (DU-145 prostate): 25 µM
- TGI (DU-145 prostate): > 100 µM
- GI50 (EKVX NSCLC): 27 µM
- TGI (EKVX NSCLC): > 100 µM
- GI50 (HCC-2998 colon): 25.1 µM
- TGI (HCC-2998 colon): 54 µM
- GI50 (HCT-116 colon): 43.9 µM
- TGI (HCT-116 colon): > 100 µM
- GI50 (HCT-15 colon): 25.7 µM
- TGI (HCT-15 colon): 71.7 µM
- GI50 (HL-60(TB) leukemia): 17.7 µM
- TGI (HL-60(TB) leukemia): 43 µM
- GI50 (HOP-62 NSCLC): 17.2 µM
- TGI (HOP-62 NSCLC): > 100 µM
- GI50 (HOP-92 NSCLC): 12 µM
- TGI (HOP-92 NSCLC): 32.3 µM
- GI50 (HS 578T breast): 18.5 µM
- TGI (HS 578T breast): 36.8 µM
- GI50 (HT29 colon): 18.3 µM
- TGI (HT29 colon): 45 µM
- GI50 (IGROV1 ovarian): 21.1 µM
- TGI (IGROV1 ovarian): 59.2 µM
- GI50 (K-562 leukemia): 13.4 µM
- TGI (K-562 leukemia): 41.6 µM
- GI50 (KM12 colon): 19.8 µM
- TGI (KM12 colon): 43.8 µM
- GI50 (LOX IMVI melanoma): 17.8 µM
- TGI (LOX IMVI melanoma): 47.3 µM
- GI50 (M14 melanoma): 51.1 µM
- TGI (M14 melanoma): > 100 µM
- GI50 (MALME-3M melanoma): 16.9 µM
- TGI (MALME-3M melanoma): 36 µM
- GI50 (MCF7 breast): 13.9 µM
- TGI (MCF7 breast): 53.9 µM
- GI50 (MDA-MB-231 breast): 19.9 µM
- TGI (MDA-MB-231 breast): 50 µM
- GI50 (MDA-MB-435): 27.2 µM
- TGI (MDA-MB-435): 59.5 µM
- GI50 (NCI-H226 lung): 11.7 µM
- TGI (NCI-H226 lung): 31.8 µM
- GI50 (NCI-H23 lung): 28.9 µM
- TGI (NCI-H23 lung): 91.6 µM
- GI50 (NCI-H322M lung): 35 µM
- TGI (NCI-H322M lung): > 100 µM
- GI50 (NCI-H460 lung): 19 µM
- TGI (NCI-H460 lung): 53.4 µM
- GI50 (NCI-H522 lung): 18 µM
- TGI (NCI-H522 lung): 39.9 µM
- GI50 (NCI/ADR-RES ovarian): 35.2 µM
- TGI (NCI/ADR-RES ovarian): > 100 µM
- GI50 (OVCAR-3 ovarian): 33.6 µM
- TGI (OVCAR-3 ovarian): > 100 µM
- GI50 (OVCAR-5 ovarian): 30 µM
- TGI (OVCAR-5 ovarian): > 100 µM
- GI50 (OVCAR-8 ovarian): 26.9 µM
- TGI (OVCAR-8 ovarian): > 100 µM
- GI50 (PC-3 prostate): 12.4 µM
- TGI (PC-3 prostate): 33.2 µM
- GI50 (RPMI-8226 leukemia): 20.9 µM
- TGI (RPMI-8226 leukemia): > 100 µM
- GI50 (RXF 393 renal): 16.4 µM
- TGI (RXF 393 renal): 35.1 µM
- GI50 (SF-268 CNS): 17.8 µM
- TGI (SF-268 CNS): 42 µM
- GI50 (SF-539 CNS): 15.1 µM
- TGI (SF-539 CNS): 37.8 µM
- GI50 (SK-MEL-2 melanoma): 28.6 µM
- TGI (SK-MEL-2 melanoma): 62.7 µM
- GI50 (SK-MEL-28 melanoma): 21.2 µM
- TGI (SK-MEL-28 melanoma): 41.6 µM
- GI50 (SK-MEL-5 melanoma): 11.2 µM
- TGI (SK-MEL-5 melanoma): 29.5 µM
- GI50 (SK-OV-3 ovarian): 42.8 µM
- TGI (SK-OV-3 ovarian): 68.9 µM
- GI50 (SN12C renal): 16.4 µM
- TGI (SN12C renal): 34.5 µM
- GI50 (SNB-19 CNS): 15.8 µM
- TGI (SNB-19 CNS): 39.5 µM
- GI50 (SR leukemia): 11.7 µM
- TGI (SR leukemia): 67.9 µM
- GI50 (SW-620 colon): 27.6 µM
- TGI (SW-620 colon): > 100 µM
- GI50 (T-47D breast): 7.7 µM
- TGI (T-47D breast): 22.5 µM
- GI50 (TK-10 renal): 27.3 µM
- TGI (TK-10 renal): 70.2 µM
- GI50 (U251 CNS): 13 µM
- TGI (U251 CNS): 41.7 µM
- GI50 (UACC-257 melanoma): 17.5 µM
- TGI (UACC-257 melanoma): 49 µM
- GI50 (UACC-62 melanoma): 13.4 µM
- TGI (UACC-62 melanoma): 29.2 µM
- GI50 (UO-31 renal): 18.6 µM
- TGI (UO-31 renal): 43.6 µM
